Laboratory results reported in patent US11674136B2, “DNA-templated macrocycle library” (President and Fellows of Harvard College, priority 2018, dated 2023).

By UniProt entry, the sequences of proteins in these tests, tags left out. Residues count along the entry.
UniProt P14735, 42-1019 limits assumed: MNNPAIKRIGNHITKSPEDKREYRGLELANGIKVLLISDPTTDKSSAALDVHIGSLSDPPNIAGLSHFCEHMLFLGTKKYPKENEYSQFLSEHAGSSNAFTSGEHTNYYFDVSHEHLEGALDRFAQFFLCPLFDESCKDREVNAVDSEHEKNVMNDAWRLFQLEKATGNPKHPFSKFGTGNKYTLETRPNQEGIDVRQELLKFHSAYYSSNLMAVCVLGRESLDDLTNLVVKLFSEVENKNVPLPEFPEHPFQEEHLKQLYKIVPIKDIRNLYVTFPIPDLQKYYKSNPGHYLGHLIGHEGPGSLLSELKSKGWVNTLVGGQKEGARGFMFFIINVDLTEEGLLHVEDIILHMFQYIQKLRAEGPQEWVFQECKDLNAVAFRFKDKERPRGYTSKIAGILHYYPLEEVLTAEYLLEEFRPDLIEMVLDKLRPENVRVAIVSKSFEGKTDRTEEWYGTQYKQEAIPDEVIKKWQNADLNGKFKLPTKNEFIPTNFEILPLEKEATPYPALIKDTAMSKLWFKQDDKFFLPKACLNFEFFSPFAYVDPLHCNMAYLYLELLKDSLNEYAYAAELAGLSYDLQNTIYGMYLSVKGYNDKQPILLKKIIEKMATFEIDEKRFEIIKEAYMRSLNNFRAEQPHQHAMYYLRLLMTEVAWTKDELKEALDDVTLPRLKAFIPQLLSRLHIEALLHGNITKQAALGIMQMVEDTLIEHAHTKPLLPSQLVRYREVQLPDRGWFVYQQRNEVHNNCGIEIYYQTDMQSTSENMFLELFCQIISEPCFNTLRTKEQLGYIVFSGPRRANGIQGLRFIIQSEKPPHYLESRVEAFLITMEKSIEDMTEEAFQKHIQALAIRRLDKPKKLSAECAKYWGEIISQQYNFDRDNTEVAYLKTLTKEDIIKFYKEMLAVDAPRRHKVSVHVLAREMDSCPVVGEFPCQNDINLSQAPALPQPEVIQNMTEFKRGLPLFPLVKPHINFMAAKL

Each molecule was assayed against Recombinant human N-His6-IDE42-1019 (Homo sapiens, UniProt P14735) (assay: IDE inhibition assay with fluorogenic decapeptide substrate Mca-RPPGFSAFK(Dnp)-OH). Conditions: fluorogenic decapeptide cleavage assay; comparison with reference inhibitors.
Protocol: Recombinant human N-His6-IDE42-1019(R&D Systems) was assayed using the fluorophore/quencher-tagged peptide substrate Mca-RPPGFSAFK(Dnp)-OH (R&D) according to the manufacturer's instructions and using the recommended buffer 50 mM Tris, pH 7.5, 1 M NaCl (fluorophore Mca=(7-methoxycourmarin-4-yl)acetyl and quencher Dnp=2,4-dinitrophenyl). The enzyme mixture (48 μL) was transferred to a 96-well plate and combined with 2 μL of inhibitor in DMSO solutions, as 3-fold dilution series. The mixtures were allowed to equilibrate for 5 minutes and the enzymatic reaction was started by addition of substrate peptide in assay buffer (50 μL), immediately mixed by orbital shaking, and monitored on a fluorescence plate reader (excitation at 320 nm, emission at 405 nm). […] Inhibitor 6bK was used as a positive control in each assay, and error bars correspond to the standard error.

IDE inhibition, potency in words | Structure (SMILES)
weakly active | NCCOCCNC(=O)[C@H]1CCNC(=O)/C=C/C(=O)N[C@H](Cc2ccccc2C(F)(F)F)C(=O)N[C@@H](CC2CCCCC2)C(=O)N[C@H](Cc2ccc(C(=O)c3ccccc3)cc2)C(=O)N1

Same assay, conditions: read-out: IDE IC50; fluorogenic decapeptide cleavage assay; DNA-free macrocycle

Structure (SMILES) | IC50
NCCOCCNC(=O)[C@H]1Cc2ccccc2CNC(=O)C[C@@H](Cc2ccccc2)NC(=O)[C@H](Cc2ccco2)NC(=O)CN2CCN(CC2)C(=O)/C=C/C(=O)N1 | > 100000 nM
C[C@@H]1NC(=O)/C=C\C(=O)NCc2ccccc2C[C@@H](C(=O)NCCOCCN)NC(=O)[C@@H](Cc2ccc(C(=O)c3ccccc3)cc2)NC(=O)[C@H](CC2CCCCC2)NC1=O | 400 nM
C[C@@H]1NC(=O)/C=C/C(=O)NCc2ccccc2C[C@@H](C(=O)NCCOCCN)NC(=O)[C@@H](Cc2ccc(C(=O)c3ccccc3)cc2)NC(=O)[C@H](CC2CCCCC2)NC1=O | 600 nM
C[C@@H]1NC(=O)/C=C/C(=O)NCC[C@H](C(=O)NCCOCCN)NC(=O)[C@@H](Cc2ccc(C(=O)c3ccccc3)cc2)NC(=O)[C@H](CC2CCCCC2)NC1=O | 2000 nM

Now from value to molecule:

IC50 | Structure (SMILES)
20000 nM | NCCOCCNC(=O)[C@H]1CCNC(=O)/C=C/C(=O)N[C@H](Cc2ccccc2C(F)(F)F)C(=O)N[C@@H](CC2CCCCC2)C(=O)N[C@H](Cc2ccc(C(=O)c3ccccc3)cc2)C(=O)N1
400 nM | C[C@@H]1NC(=O)/C=C\C(=O)NCC[C@H](C(=O)NCCOCCN)NC(=O)[C@@H](Cc2ccc(C(=O)c3ccccc3)cc2)NC(=O)[C@H](CC2CCCCC2)NC1=O
